Experimental data published in PubChem BioAssay AID1508602 (The Scripps Research Institute Molecular Screening Center, 2020).
The entries are a selection whose mix differs from that of the whole data set. Activity calls are given as the source filed them. No stated cut-off is given here; in the data, active means activation above about 4.9%; inactive means the rest.

Amino acid sequences for entries named in this document (tags omitted). A change or cut given only in a name is not applied to a line headed by its entry.
UniProt Q8TDV0: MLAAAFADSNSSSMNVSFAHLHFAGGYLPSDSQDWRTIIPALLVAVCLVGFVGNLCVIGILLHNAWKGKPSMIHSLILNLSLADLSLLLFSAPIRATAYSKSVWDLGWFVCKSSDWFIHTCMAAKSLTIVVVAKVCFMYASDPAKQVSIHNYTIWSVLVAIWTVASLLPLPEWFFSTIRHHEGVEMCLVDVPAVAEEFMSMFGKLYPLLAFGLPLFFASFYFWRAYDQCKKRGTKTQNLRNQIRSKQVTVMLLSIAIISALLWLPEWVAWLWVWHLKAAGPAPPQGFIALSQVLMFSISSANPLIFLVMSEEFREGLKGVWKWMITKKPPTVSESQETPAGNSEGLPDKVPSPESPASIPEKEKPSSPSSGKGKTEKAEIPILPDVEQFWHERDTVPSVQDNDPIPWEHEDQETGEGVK

Biological target: G-protein coupled receptor 151 (Homo sapiens) (UniProt Q8TDV0)
Assay: activates the human receptor GPR151, primary screen, cell-based, PathHunter beta-arrestin, luminescence (AID 1508602);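 further: 0% = median of compound wells and 100% = cells with positive control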
Details: PathHunter beta-arrestin GPR151 cells, at 11.2 µM, hits give high values

Question: How did the activation turn out when `Cc1ccc(S(=O)(=O)NCCCCC(NC(=O)OC(C)(C)C)C(=O)O)cc1` (stereo unspecified) was run?
Answer: The activation was inactive: -0.241%.

Question: For `CC(Cl)(CSSCC(C)(Cl)C(=O)O)C(=O)O` (stereo unspecified), which activation is on record?
Answer: The activation was inactive: -0.0892%.

Question: With `COC(=O)c1nsnc1NCCCl` as the compound, how does the activation read?
Answer: Its activation is inactive: 0.597%.

Question: How did the activation turn out when `CC1(CBr)Cn2c(nc3ccccc3c2=O)S1` (stereo unspecified) was run?
Answer: The activation was inactive: 0.809%.

Question: `COc1cc([N+](=O)[O-])cc([N+](=O)[O-])c1N/N=C(/C)c1cccc([N+](=O)[O-])c1` was tested. Which activation did it give?
Answer: Its activation is inactive: -0.733%.

Question: With `CCOc1ccc(NC(=O)c2ccc([N+](=O)[O-])cc2[N+](=O)[O-])c([N+](=O)[O-])c1` as the compound, how does the activation read?
Answer: The activation was inactive: 0.38%.

Question: Which activation does the source give for `COc1ccc2nc(SCc3ccc(C(=O)O)cc3)[nH]c2c1` here?
Answer: Its activation is inactive: 0.395%.

Question: Which activation does the source give for `CCOP(=O)(NC(=NC(C)c1ccccc1)NC(C)c1ccccc1)OCC` (stereo unspecified) here?
Answer: The activation was inactive: -2.42%.

Question: For `COc1cccc(OP(=O)(Nc2ccccn2)Oc2cccc(OC)c2)c1`, which activation is on record?
Answer: The activation was inactive: -0.321%.

Question: With `O=P1(Nc2ccccn2)COc2ccccc2OC1` as the compound, how does the activation read?
Answer: The activation was inactive: -1.43%.

Question: With `O=[N+]([O-])c1cc([N+](=O)[O-])c(N2CCCCC2)c([N+](=O)[O-])c1` as the compound, how does the activation read?
Answer: The activation was inactive: -0.263%.

Question: Which activation does the source give for `CCOP(=O)(CN)OCC` here?
Answer: Its activation is inactive: -1.6%.

Question: With `CN(CCCl)Cc1cc(Cl)c(NC2=NCCN2)c(Cl)c1` as the compound, how does the activation read?
Answer: The activation was inactive: 1.91%.

Question: For `CC(C)(C)C(=O)NC(Sc1ncccn1)C(Cl)(Cl)Cl` (stereo unspecified), which activation is on record?
Answer: Its activation is inactive: 0.787%.

Question: With `n1[nH]nc2c1c1n[nH]nc1c1n[nH]nc21` as the compound, how does the activation read?
Answer: Its activation is inactive: 0.131%.

Question: How did the activation turn out when `CCOc1ccc(NP2(=O)C=C(Cl)N(C)C(=O)N2C)cc1` (stereo unspecified) was run?
Answer: Its activation is inactive: -0.276%.

Question: `COc1cc([N+](=O)[O-])cc([N+](=O)[O-])c1OCC(=O)N/N=C/c1ccc([N+](=O)[O-])o1` was tested. Which activation did it give?
Answer: The activation was inactive: -1.5%.

Question: With `O=[N+]([O-])c1ccc(N/N=C/c2ccc([N+](=O)[O-])s2)c([N+](=O)[O-])c1` as the compound, how does the activation read?
Answer: The activation was inactive: 1.43%.

Question: How did the activation turn out when `O=[N+]([O-])c1ccc(NCCN(CCO)c2ccc([N+](=O)[O-])cc2[N+](=O)[O-])c(Cl)c1` was run?
Answer: The activation was inactive: 0.384%.

Question: Which activation does the source give for `CCSP(=O)(c1ccccc1)c1ccccc1` here?
Answer: Its activation is inactive: 1.84%.

Question: How did the activation turn out when `CC(=Nc1cc([N+](=O)[O-])ccc1C)NNc1ccc([N+](=O)[O-])cc1[N+](=O)[O-]` was run?
Answer: Its activation is inactive: -0.494%.

Question: Which activation does the source give for `COP(=O)(OC)Oc1c(Cl)c(Cl)c(O)c(Cl)c1Cl` here?
Answer: Its activation is inactive: -0.35%.

Question: `Cc1c(N=Cc2ccc([N+](=O)[O-])cc2)cc([N+](=O)[O-])cc1[N+](=O)[O-]` was tested. Which activation did it give?
Answer: Its activation is inactive: -0.703%.

Question: `O=C(Nc1cccc(F)c1)N(Cc1cccnc1)C1CCN(CCc2ccccn2)CC1` was tested. Which activation did it give?
Answer: The activation was inactive: 0.999%.

Question: For `CC(C)OP(=O)(Nc1ccc(Br)cc1)OC(C)C`, which activation is on record?
Answer: The activation was inactive: 0.593%.

Question: For `CC1(C)COP(=S)(N(C2=NCCC2)c2ccccc2)OC1`, which activation is on record?
Answer: The activation was inactive: 0.86%.

Question: Which activation does the source give for `CCCCOP(=O)(Nc1cccc(F)c1)OCCCC` here?
Answer: Its activation is inactive: 1.4%.

Question: Which activation does the source give for `Cc1nn(-c2ccccc2)c2c1P(=O)(N1CCOCC1)N(C)C(c1ccccc1)=N2` (stereo unspecified) here?
Answer: Its activation is inactive: 1.85%.

Question: With `CC(C)NC(=O)N(Cc1cccnc1)C1CCN(CCc2ccccn2)CC1` as the compound, how does the activation read?
Answer: The activation was inactive: -2.15%.

Question: How did the activation turn out when `O=[N+]([O-])c1ccc2c(c1)/C(=N\O)c1cc([N+](=O)[O-])cc([N+](=O)[O-])c1-2` was run?
Answer: The activation was inactive: 0.375%.

Question: How did the activation turn out when `Cc1n[n+]2c([nH]c1=O)SCC(Br)C2c1ccccc1` (stereo unspecified) was run?
Answer: The activation was inactive: -0.0802%.

Question: With `N#Cc1cccc(C(=O)N(Cc2ccco2)C2CCN(CCc3ccccn3)CC2)c1` as the compound, how does the activation read?
Answer: The activation was inactive: 0.0513%.

Question: How did the activation turn out when `CN(C)C1(CNC(=O)c2ccc(S(C)(=O)=O)cc2)CCCCC1` was run?
Answer: Its activation is inactive: -0.472%.

Question: `COCCN(CCOC)C(=O)COC(=O)C(O)(c1ccccc1)c1ccccc1` was tested. Which activation did it give?
Answer: Its activation is inactive: -1.17%.

Question: How did the activation turn out when `O=C(Cc1ccc(F)cc1)N(Cc1ccco1)C1CCN(CCc2ccccn2)CC1` was run?
Answer: Its activation is inactive: 2.55%.

Question: For `O=C(O)C(Cl)CSc1nc2ccccc2o1` (stereo unspecified), which activation is on record?
Answer: Its activation is inactive: -2.05%.

Question: `COc1ccccc1NC1=NCC(CBr)S1` (stereo unspecified) was tested. Which activation did it give?
Answer: Its activation is inactive: -0.284%.

Question: How did the activation turn out when `O=C(/C=C/c1ccccc1)OC1CN2CCC1CC2` (stereo unspecified) was run?
Answer: Its activation is inactive: -0.844%.

Question: `Cc1ccc(NC2=NCC(CBr)S2)cc1` (stereo unspecified) was tested. Which activation did it give?
Answer: Its activation is inactive: 0.394%.

Question: With `O=[N+]([O-])c1ccc(N/N=C/c2ccc(Cl)c([N+](=O)[O-])c2)c([N+](=O)[O-])c1` as the compound, how does the activation read?
Answer: The activation was inactive: -0.0358%.

Question: How did the activation turn out when `NC(=O)c1nsnc1NCCCl` was run?
Answer: The activation was inactive: 0.349%.

Question: With `O=C(COC(=O)C(O)(c1ccccc1)c1ccccc1)NC(=O)NCc1ccccc1` as the compound, how does the activation read?
Answer: The activation was inactive: -1.31%.

Question: Which activation does the source give for `NC(=O)Nc1ccc([As](=O)(O)O)cc1` here?
Answer: The activation was inactive: -2%.

Question: Which activation does the source give for `Cc1ncc(-c2ccccc2)c2ccccc12` here?
Answer: The activation was inactive: -0.608%.

Question: How did the activation turn out when `Cc1ccnc(NP2(=O)C=C(c3ccccc3)OC(c3ccccc3)=C2)c1` was run?
Answer: Its activation is inactive: 0.505%.

Question: Which activation does the source give for `CCOC(=O)NC(Sc1cc(C)ncn1)C(Cl)(Cl)Cl` (stereo unspecified) here?
Answer: Its activation is inactive: 0.246%.

Question: With `O=[N+]([O-])c1ccc(Nc2ccc([N+](=O)[O-])cc2[N+](=O)[O-])c(O)c1` as the compound, how does the activation read?
Answer: The activation was inactive: 4.61%.

Question: How did the activation turn out when `CN(C(=O)Cc1ccccc1)[C@@H]1CC[C@]2(CCCO2)C[C@H]1N1CCCC1` was run?
Answer: The activation was inactive: 1.9%.

Question: For `CC1(C)Nc2ccccc2OP1(=O)c1ccccc1` (stereo unspecified), which activation is on record?
Answer: The activation was inactive: 3.82%.

Question: `O=C(Oc1ccc([N+](=O)[O-])cc1[N+](=O)[O-])c1cc([N+](=O)[O-])cc([N+](=O)[O-])c1` was tested. Which activation did it give?
Answer: Its activation is inactive: 1.12%.

Question: `O=[N+]([O-])c1cccc(P(=O)(Nc2ccccn2)c2cccc([N+](=O)[O-])c2)c1` was tested. Which activation did it give?
Answer: Its activation is inactive: 0.859%.

Question: How did the activation turn out when `CC(=O)c1cccc(NC(=O)N(Cc2ccco2)C2CCN(CCc3ccccn3)CC2)c1` was run?
Answer: Its activation is inactive: 0.365%.

Question: For `O=P(Nc1nccs1)(Oc1ccccc1)Oc1ccccc1`, which activation is on record?
Answer: Its activation is inactive: -0.0688%.

Question: `O=P(Nc1nccs1)(c1ccccc1)c1nc2ccccc2s1` (stereo unspecified) was tested. Which activation did it give?
Answer: Its activation is inactive: 0.68%.

Question: For `NC(=O)COC(=O)C1(O)c2ccccc2-c2ccccc21`, which activation is on record?
Answer: Its activation is inactive: 0.363%.

Question: `CCOP1(=O)Oc2ccccc2OC1c1ccccc1` (stereo unspecified) was tested. Which activation did it give?
Answer: Its activation is inactive: -0.623%.

Question: Which activation does the source give for `Cn1cnc([N+](=O)[O-])c1SCCCl` here?
Answer: Its activation is inactive: -0.551%.

Question: `CCOc1ccc2nc(NCCCl)[nH]c2c1` was tested. Which activation did it give?
Answer: The activation was inactive: -0.263%.

Question: How did the activation turn out when `O=P(Nc1ccccn1)(c1ccccc1)c1ccccc1` was run?
Answer: Its activation is inactive: -0.115%.

Question: How did the activation turn out when `CC(=O)NC(SC1=NCCS1)C(Cl)(Cl)Cl` (stereo unspecified) was run?
Answer: Its activation is inactive: -0.351%.

Question: Which activation does the source give for `O=C(Nc1cccc([N+](=O)[O-])c1)c1ccc([N+](=O)[O-])cc1[N+](=O)[O-]` here?
Answer: The activation was inactive: 0.581%.

Question: For `Cc1ccc(NCCc2c([N+](=O)[O-])cc([N+](=O)[O-])cc2[N+](=O)[O-])cc1`, which activation is on record?
Answer: The activation was inactive: -2.83%.

Question: Which activation does the source give for `CCOC(=O)C(C(=O)OCC)C(O)c1c([N+](=O)[O-])cc([N+](=O)[O-])cc1[N+](=O)[O-]` (stereo unspecified) here?
Answer: The activation was inactive: -0.103%.

Question: With `O=C(N/N=C\c1ccc([N+](=O)[O-])cc1)c1cc([N+](=O)[O-])cc([N+](=O)[O-])c1O` as the compound, how does the activation read?
Answer: The activation was inactive: 1.04%.

Question: For `CCOP(=O)(Nc1cccc2ccccc12)OCC`, which activation is on record?
Answer: The activation was inactive: 0.46%.

Question: For `O=C(c1cccnc1)N(Cc1cccnc1)C1CCN(CCc2cccs2)CC1`, which activation is on record?
Answer: The activation was inactive: 0.154%.

Question: With `CCC(C(=O)OC1CN2CCC1CC2)c1ccccc1` (stereo unspecified) as the compound, how does the activation read?
Answer: Its activation is inactive: 1.42%.

Question: For `CN(C(=O)Cc1ccc(Cl)c(Cl)c1)[C@@H]1CC[C@]2(CCCO2)C[C@H]1N1CCCC1`, which activation is on record?
Answer: The activation was inactive: -0.298%.

Question: Which activation does the source give for `CCOP1(=O)N=C(c2ccc(Br)cc2)NC(=O)N1` (stereo unspecified) here?
Answer: The activation was inactive: 2.42%.

Question: How did the activation turn out when `Cc1cc(NC(=O)NP(=O)(O)O)n(-c2ccccc2)n1` was run?
Answer: The activation was inactive: 0.867%.

Question: For `COP(=O)(Nc1ccc(C)cc1)OC`, which activation is on record?
Answer: The activation was inactive: -0.631%.

Question: Which activation does the source give for `Cc1cccc(OCC(=O)OC2CN3CCC2CC3)c1` (stereo unspecified) here?
Answer: Its activation is inactive: 2.77%.

Question: With `CC(C)OP(=O)(OC(C)C)C(=O)c1ccco1` as the compound, how does the activation read?
Answer: The activation was inactive: 1.46%.

Question: How did the activation turn out when `Cc1cc(Br)c(Nc2c([N+](=O)[O-])cc([N+](=O)[O-])c3nonc23)cc1[N+](=O)[O-]` was run?
Answer: Its activation is active: 9.82%.

Question: How did the activation turn out when `BrCC1CN=C(Nc2ccccc2)S1` (stereo unspecified) was run?
Answer: Its activation is inactive: 0.613%.

Question: How did the activation turn out when `COc1cc(-n2cnnn2)ccc1-n1cnnn1` was run?
Answer: The activation was inactive: -0.488%.
